Sequences of proteins named here, by UniProt entry; tags and fusion partners are left off. Residues count along the entry.
UniProt P00797, 67-406: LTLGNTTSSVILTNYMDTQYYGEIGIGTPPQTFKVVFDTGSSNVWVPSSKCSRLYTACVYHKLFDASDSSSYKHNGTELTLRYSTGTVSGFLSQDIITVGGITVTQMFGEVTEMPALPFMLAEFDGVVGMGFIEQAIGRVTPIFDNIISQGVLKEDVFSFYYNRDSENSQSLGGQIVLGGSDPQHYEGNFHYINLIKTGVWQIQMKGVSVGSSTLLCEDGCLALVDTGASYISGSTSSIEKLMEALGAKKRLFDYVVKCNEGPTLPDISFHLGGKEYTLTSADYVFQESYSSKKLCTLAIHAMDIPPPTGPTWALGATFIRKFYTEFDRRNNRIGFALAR

According to publication PMC5553068 (Bioorganic & medicinal chemistry, 2017):

Target: human renin (Homo sapiens, UniProt P00797)
Conditions: Table 7; for Relative LE cf. 7b: LE values normalized to 7b; for LE: based on measured IC50

Compound | Relative LE cf. 7b | LE
CCc1nc(N)cc(C)c1-c1ccc(F)c2c(C)c(CCOC)[nH]c12 [Compound 27, 6-Ethyl-5-(4-fluoro-2-(2-methoxyethyl)-3-methyl-1H-indol-7-yl)-4-methylpyridin-2-amine] | 1.18 | 0.39
CCc1nc(N)cc(C)c1-c1ccc2c(c1)N(CCNC(C)=O)C(=O)C(C)(C)O2 [Compound 32, N-(2-(6-(6-Amino-2-ethyl-4-methylpyridin-3-yl)-2,2-dimethyl-3-oxo-2H-benzo[b][1,4]oxazin-4(3H)-yl)ethyl)acetamide] | 1.06 | 0.35
CCc1nc(N)cc(OC)c1-c1ccc2c(c1)N(CCNC(C)=O)C(=O)C(C)(C)O2 [Compound 33, N-(2-(6-(6-Amino-2-ethyl-4-methoxypyridin-3-yl)-2,2-dimethyl-3-oxo-2H-benzo[b][1,4]oxazin-4(3H)-yl)ethyl)acetamide] | 1.05 | 0.33
